Binding of CDR-mutated scFvs to a peptide of the spike HR2 region

Target: peptide PDVDLGDISGINAS, taken from heptad repeat 2 (HR2) of SARS-CoV-2 spike.

Parent: Ab-95, a human scFv built as VH, a 15-residue (Gly4Ser)3 linker, VL. Only the CDRs of the light chain vary.
VH: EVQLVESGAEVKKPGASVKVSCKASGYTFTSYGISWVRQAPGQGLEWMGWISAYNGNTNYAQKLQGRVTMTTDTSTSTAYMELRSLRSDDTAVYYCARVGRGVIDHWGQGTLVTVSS
VL: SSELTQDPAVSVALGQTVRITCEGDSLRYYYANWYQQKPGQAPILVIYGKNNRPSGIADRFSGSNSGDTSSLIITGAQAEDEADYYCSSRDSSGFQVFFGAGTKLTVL

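The parent was found by panning a naive human phage display library on the peptide. The library (AAYL52) carries one to three amino acid substitutions per variant, with no insertions or deletions. AlphaSeq pools MATa yeast showing the antibodies with MATalpha yeast showing the peptide. Pairs that bind mate more often; barcode pairs of the diploids are counted by sequencing. Scores were corrected for input abundance and mapped to Kd with protein pairs of known affinity run in the same pool. Each pool was mated in three replicate cultures.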

Changes read parent residue, position, new residue, counted from the first residue of the VL shown.
All variants listed here change E23 of the VL, counted from its first residue.
Affinities are written as log10 Kd with Kd in nM; a lower number is a better binder.
The mean shown is taken over the replicates in which the pair was detected.
Where no diploid with the target was found in any replicate, the entry reads "not detected": below detection, most likely a poor binder, though not proof of it.
In this assay the parent's reference entry averaged 2.31; its copy inside this library read 2.25.
Three control strains display no target. For library AAYL52, 28% of the pairings with them gave a signal, with a median of 3.91 and one signal in twenty below 2.90, so weak values seen in few replicates may be background. The control count says in how many pairings with the empty strains this scFv gave a signal.

| changes | log10 Kd (nM), mean | seen in | empty controls |
|---|---|---|---|
| E23T/A32Y/Q96W | 4.97 | 3/3 | 5/9 |
| E23L/R90H/S92C | 5.48 | 1/3 | 1/9 |
| E23L/L27F/N52S | 3.18 | 2/3 | 0/9 |
| E23V/Y30W/F98N | 2.68 | 3/3 | 0/9 |
| E23M/L27Y/P54F | not detected | 0/3 | 1/9 |
| E23C/N51E/S89D | 2.84 | 3/3 | 1/9 |
| E23L/A32H/S55H | 3.48 | 2/3 | 2/9 |
| E23M/V97Y/F98V | 3.45 | 2/3 | 2/9 |
| E23F/N33D/N52M | 2.69 | 3/3 | 2/9 |
| E23A/L27N/G94E | 3.84 | 2/3 | 4/9 |
| E23T/N52I/S93L | 2.86 | 3/3 | 3/9 |
| E23A/S89M | 3.48 | 3/3 | 3/9 |
| E23S/R53S/S89G | 2.95 | 2/3 | 1/9 |
| E23V/G24T | 3.09 | 2/3 | 4/9 |
| E23L/S88M/F98S | 2.11 | 3/3 | 2/9 |
| E23V/R28I/K50D | 3.03 | 3/3 | 1/9 |
| E23A/L27E/Y30D | 2.63 | 3/3 | 1/9 |
| E23M/D25S/S93R | 2.60 | 3/3 | 6/9 |
| E23V/K50T/F95K | 3.43 | 3/3 | 2/9 |
| E23L/S88F/G94Y | 3.72 | 2/3 | 2/9 |
| E23I/Y29V/F95P | 3.81 | 3/3 | 3/9 |
| E23I/L27Q/S88K | not detected | 0/3 | 3/9 |
| E23L/A32C/S89G | 3.13 | 3/3 | 0/9 |
| E23N/L27G/N33I | not detected | 0/3 | 1/9 |
| E23G/Y31F/D91H | 3.27 | 3/3 | 1/9 |
| E23V/S26M/S92C | 3.38 | 2/3 | 2/9 |
| E23F | 3.45 | 3/3 | 1/9 |
| E23D/Y29Q/Q96T | 3.40 | 3/3 | 3/9 |
| E23F/P54S | 2.76 | 3/3 | 0/9 |
| E23N/G24N/P54N | 3.59 | 2/3 | 4/9 |
| E23H/N52G/F98Q | 2.62 | 3/3 | 5/9 |
| E23W/S55A/G94F | 4.26 | 3/3 | 2/9 |
| E23L/Y29P/V97M | 2.69 | 3/3 | 3/9 |
| E23V/P54N/S92I | 2.80 | 3/3 | 1/9 |
| E23M/G24M/A32V | 3.05 | 3/3 | 6/9 |
| E23A/G49A/S88T | 5.87 | 1/3 | 3/9 |
| E23C/N51H/V97A | 3.76 | 1/3 | 3/9 |
| E23V/R53S/S88V | not detected | 0/3 | 0/9 |
| E23D/D25Q/G49A | 4.24 | 3/3 | 5/9 |
| E23F/S89L/F98R | 2.72 | 3/3 | 2/9 |
| E23V/D91L/Q96C | 3.32 | 2/3 | 2/9 |
| E23L/S92G | 2.69 | 3/3 | 6/9 |
| E23T/S93Y/F95K | 2.67 | 3/3 | 1/9 |
| E23W/S89F/V97P | not detected | 0/3 | 4/9 |
| E23K/R28Q/N51L | 2.62 | 3/3 | 5/9 |
| E23A | 3.56 | 2/3 | 0/9 |
| E23L/N51M/V97F | 4.42 | 1/3 | 4/9 |
| E23K/S26K/V97Y | not detected | 0/3 | 2/9 |
| E23D/N33W/S55N | 3.03 | 2/3 | 3/9 |
| E23N/G49F/P54G | 5.25 | 2/3 | 1/9 |
| E23Q/S26L/D91S | not detected | 0/3 | 1/9 |
| E23D/A32P/K50S | 2.28 | 3/3 | 3/9 |
| E23Y/S92T/F95H | 2.95 | 3/3 | 2/9 |
| E23K/N51R | 3.03 | 3/3 | 3/9 |
| E23M/F95D/F98A | 3.11 | 1/3 | 2/9 |
| E23I/G49V/R90A | not detected | 0/3 | 1/9 |
| E23G | 1.75 | 3/3 | 0/9 |
| E23K/R53I/F95E | 2.50 | 3/3 | 3/9 |
| E23N/D25I/N52Y | 3.95 | 3/3 | 2/9 |
| E23V/S26N/S89D | 3.03 | 3/3 | 1/9 |
| E23V/L27Y/G94D | 4.85 | 3/3 | 3/9 |
| E23W/G49L/S89D | 4.39 | 3/3 | 1/9 |
| E23W/R53D/V97M | 3.27 | 1/3 | 2/9 |
| E23P/N33A/S55G | 3.71 | 1/3 | 1/9 |
| E23F/N52R/S93I | 4.35 | 1/3 | 2/9 |

9 of these entries, quoted again:

{"changes": "E23V/S26N/S89D", "log10 Kd (nM), mean": "3.03", "seen in": "3/3", "empty controls": "1/9"}
{"changes": "E23I/L27Q/S88K", "log10 Kd (nM), mean": "not detected", "seen in": "0/3", "empty controls": "3/9"}
{"changes": "E23N/L27G/N33I", "log10 Kd (nM), mean": "not detected", "seen in": "0/3", "empty controls": "1/9"}
{"changes": "E23K/R28Q/N51L", "log10 Kd (nM), mean": "2.62", "seen in": "3/3", "empty controls": "5/9"}
{"changes": "E23F/N52R/S93I", "log10 Kd (nM), mean": "4.35", "seen in": "1/3", "empty controls": "2/9"}
{"changes": "E23W/R53D/V97M", "log10 Kd (nM), mean": "3.27", "seen in": "1/3", "empty controls": "2/9"}
{"changes": "E23V/S26M/S92C", "log10 Kd (nM), mean": "3.38", "seen in": "2/3", "empty controls": "2/9"}
{"changes": "E23N/G24N/P54N", "log10 Kd (nM), mean": "3.59", "seen in": "2/3", "empty controls": "4/9"}
{"changes": "E23A", "log10 Kd (nM), mean": "3.56", "seen in": "2/3", "empty controls": "0/9"}

Data: MIT Lincoln Laboratory AlphaSeq set, Engelhart et al. 2022, doi:10.1038/s41597-022-01779-4, as distributed in FLAb.